pKd: −log10 of the molar value.
How the values were obtained:
Assay in all cases: fluorescence polarization titration
Conditions in all cases: 0.8 nM dye, 20 mM Tris, 100 mM NaCl, pH 8, 25 °C
NovoTag657 = tested on: NovoTag657
NovoTag596 = tested on: NovoTag596
NovoTag494 = tested on: NovoTag494
NovoTag494^L = tested on: NovoTag494^L
NovoTag494^S = tested on: NovoTag494^S

## CCN1c2cc3c(cc2C(C)CC1(C)C)C(c1c(F)c(F)c(F)c(F)c1C(=O)[O-])=c1cc2c4c(c1C3(C)C)CCC[N+]=4CCC2 (centres unmarked)
NovoTag657
  pKd: 8.70

## CC1=CC(C)(C)Nc2cc3c(cc21)C(c1c(F)c(F)c(F)c(F)c1C(=O)O)=c1cc2c(cc1O3)=NC(C)(C)C=C2C
NovoTag596
  pKd: 8.82

## N=c1cc2oc3cc(N)c(F)cc3c(-c3ccccc3C(=O)O)c-2cc1F
NovoTag494
  pKd: 7.72
NovoTag494^L
  pKd: 6.82
NovoTag494^S
  pKd: 7.30
